# Assay results from patent US20050158277A1 (priority 2001, published 2005).
# Legend:
# [1] = tested on: DnaK (hsp70) and lbpB (hsp17) genes; details: 50 mM BA, at 42° C., cells grown at 30° C.
# [2] = tested on: macrophage cell line (J774); details: 50 mM BA, MΦ/S.th. 1:1, up to 60 min
compound,measurement,setting,value
"OCc1ccccc1 [BA, benzyl alcohol]",level of accumulation of DnaK,[1],significant decrease
same,capacity of Salmonella to infect macrophages,[2],reduces its capacity to infect macrophages only temporarily
